Experimental data reported in patent US11110092B2, “Methods of treating hematologic cancers” (BIOCRYST PHARMACEUTICALS, INC, priority 2007, dated 2021).

System: primary leukemic cells from patients with CLL
Settings: bendamustine low dose 10 μM, alone or in combination with forodesine

Cl.Cn1c(CCCC(=O)O)nc2cc(N(CCCl)CCCl)ccc21 [Bendamustine]
mean cytotoxicity: 32.95%
